Experiment [1] has as its target CDK4 (Homo sapiens, UniProt P11802). Put plainly: IC50 of dual-target inhibitors against CDK4. Particulars: read-out: IC50 CDK4.
Experiment [2] addresses PARP1 (Homo sapiens, UniProt P09874). The experiment in a line: IC50 of dual-target inhibitors against PARP1. To be noted: read-out: IC50 PARP1.

Chains of the proteins cited; added tags and fusions are not shown.
UniProt P11802, whole entry: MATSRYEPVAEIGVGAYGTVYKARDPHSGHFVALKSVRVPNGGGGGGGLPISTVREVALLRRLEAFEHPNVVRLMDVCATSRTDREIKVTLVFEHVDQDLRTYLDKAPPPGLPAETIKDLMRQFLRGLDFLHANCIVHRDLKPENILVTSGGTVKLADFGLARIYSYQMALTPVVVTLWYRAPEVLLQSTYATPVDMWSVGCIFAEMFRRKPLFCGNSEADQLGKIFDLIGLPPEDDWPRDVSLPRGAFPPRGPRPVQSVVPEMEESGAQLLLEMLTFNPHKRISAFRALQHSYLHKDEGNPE
UniProt P09874, whole entry: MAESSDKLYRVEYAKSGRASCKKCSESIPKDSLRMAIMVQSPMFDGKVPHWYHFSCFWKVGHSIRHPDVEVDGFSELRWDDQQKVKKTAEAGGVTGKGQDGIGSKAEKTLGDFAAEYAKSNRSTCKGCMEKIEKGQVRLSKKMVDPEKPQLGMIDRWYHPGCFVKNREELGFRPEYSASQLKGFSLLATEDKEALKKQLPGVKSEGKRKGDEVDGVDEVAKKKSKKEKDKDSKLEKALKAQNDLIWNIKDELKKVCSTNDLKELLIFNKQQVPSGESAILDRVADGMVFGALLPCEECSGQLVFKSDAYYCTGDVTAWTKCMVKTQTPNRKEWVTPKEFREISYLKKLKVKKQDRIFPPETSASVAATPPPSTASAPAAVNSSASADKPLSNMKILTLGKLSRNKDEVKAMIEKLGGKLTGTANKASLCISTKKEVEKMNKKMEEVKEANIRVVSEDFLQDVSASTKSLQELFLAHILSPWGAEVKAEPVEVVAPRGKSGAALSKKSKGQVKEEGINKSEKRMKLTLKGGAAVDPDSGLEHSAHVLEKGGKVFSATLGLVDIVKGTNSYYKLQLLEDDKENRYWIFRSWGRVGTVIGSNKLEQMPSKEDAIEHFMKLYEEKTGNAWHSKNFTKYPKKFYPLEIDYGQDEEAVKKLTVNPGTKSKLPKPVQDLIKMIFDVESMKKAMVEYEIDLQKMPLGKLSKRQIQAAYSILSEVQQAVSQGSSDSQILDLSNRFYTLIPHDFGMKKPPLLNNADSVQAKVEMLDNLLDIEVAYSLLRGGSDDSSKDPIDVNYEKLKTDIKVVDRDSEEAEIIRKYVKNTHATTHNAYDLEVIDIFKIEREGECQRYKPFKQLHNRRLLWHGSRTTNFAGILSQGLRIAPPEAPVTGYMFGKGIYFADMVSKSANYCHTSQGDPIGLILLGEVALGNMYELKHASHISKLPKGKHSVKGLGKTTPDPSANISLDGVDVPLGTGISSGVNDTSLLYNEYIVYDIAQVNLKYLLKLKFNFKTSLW
UniProt P24385, whole entry partner: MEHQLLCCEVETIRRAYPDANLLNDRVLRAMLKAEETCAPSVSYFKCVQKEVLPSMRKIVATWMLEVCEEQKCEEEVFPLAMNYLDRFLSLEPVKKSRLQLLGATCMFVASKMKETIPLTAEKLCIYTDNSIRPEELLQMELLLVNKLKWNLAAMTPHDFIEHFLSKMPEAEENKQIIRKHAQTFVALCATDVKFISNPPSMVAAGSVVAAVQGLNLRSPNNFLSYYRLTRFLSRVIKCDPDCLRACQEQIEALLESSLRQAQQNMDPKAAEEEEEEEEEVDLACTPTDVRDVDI

For `CN(C)C(=O)c1cc2cnc(N3CCCN(C(=O)c4cc(Cc5n[nH]c(=O)c6ccccc56)ccc4F)CC3)nc2n1C1CCCC1`, the IC50 was more than 500 nM in experiment [1] and 10 to 100 nM in experiment [2].
For `CN(C)C(=O)c1cc2cnc(NNC(=O)CNC(=O)c3cc(Cc4n[nH]c(=O)c5ccccc45)ccc3F)nc2n1C1CCCC1` the same measures were more than 500 nM and less than 10 nM.
For `CN(C)C(=O)c1cc2cnc(NNC(=O)[C@H](Cc3ccccc3)NC(=O)c3cc(Cc4n[nH]c(=O)c5ccccc45)ccc3F)nc2n1C1CCCC1`, the concentration for half-maximal inhibition (IC50) was more than 500 nM in experiment [1] and 100 to 500 nM in experiment [2].
Take `CN(C)C(=O)c1cc2cnc(NC3CCN(C(=O)c4cc(Cc5n[nH]c(=O)c6ccccc56)ccc4F)CC3)nc2n1C1CCCC1`: the IC50 in experiment [1] was 10 to 100 nM; in experiment [2], less than 10 nM.
With `CN(C)C(=O)c1cc2cnc(Nc3ccc(N4CCN(C(=O)c5cc(Cc6n[nH]c(=O)c7ccccc67)ccc5F)CC4)cn3)nc2n1C1CCCC1`, the IC50 in experiment [1] and in experiment [2] was less than 10 nM in each case.
With `CN(C)C(=O)c1cc2cnc(NNC(=O)[C@H](Cc3c[nH]c4ccccc34)NC(=O)c3cc(Cc4n[nH]c(=O)c5ccccc45)ccc3F)nc2n1C1CCCC1`, the half-inhibitory concentration (IC50) in experiment [1] was more than 500 nM; in experiment [2], 10 to 100 nM.
The corresponding values for `CN(C)C(=O)c1cc2cnc(NCCCNC(=O)c3cc(Cc4n[nH]c(=O)c5ccccc45)ccc3F)nc2n1C1CCCC1` are 100 to 500 nM and less than 10 nM.
For `CN(C)C(=O)c1cc2cnc(NCCNC(=O)c3cc(Cc4n[nH]c(=O)c5ccccc45)ccc3F)nc2n1C1CCCC1`, the IC50 is more than 500 nM in experiment [1] and 10 to 100 nM in experiment [2].
As for `CN(C)C(=O)c1cc2cnc(NCCCCCCCCNC(=O)c3cc(Cc4n[nH]c(=O)c5ccccc45)ccc3F)nc2n1C1CCCC1`, the IC50 in experiment [1] and in experiment [2] was more than 500 nM in each case.
As to `CN(C)C(=O)c1cc2cnc(NCCCCCNC(=O)c3cc(Cc4n[nH]c(=O)c5ccccc45)ccc3F)nc2n1C1CCCC1`, the IC50 in experiment [1] is more than 500 nM; in experiment [2] it was less than 10 nM.
With `C[C@H](NC(=O)c1cc(Cc2n[nH]c(=O)c3ccccc23)ccc1F)C(=O)NNc1ncc2cc(C(=O)N(C)C)n(C3CCCC3)c2n1`, the IC50 in experiment [1] is more than 500 nM; in experiment [2], 10 to 100 nM.
As to `CN(C)C(=O)c1cc2cnc(NCCCCCCCNC(=O)c3cc(Cc4n[nH]c(=O)c5ccccc45)ccc3F)nc2n1C1CCCC1`, the half-inhibitory concentration (IC50) in experiment [1] was more than 500 nM; in experiment [2], 10 to 100 nM.
Regarding `C[C@H](NC(=O)c1cc(Cc2n[nH]c(=O)c3ccccc23)ccc1F)C(=O)NCCNc1ncc2cc(C(=O)N(C)C)n(C3CCCC3)c2n1`, the 50% inhibitory concentration (IC50) in experiment [1] was more than 500 nM; in experiment [2] it was 100 to 500 nM.
For `CN(C)C(=O)c1cc2cnc(NCCCCNC(=O)c3cc(Cc4n[nH]c(=O)c5ccccc45)ccc3F)nc2n1C1CCCC1`, the half-inhibitory concentration (IC50) is more than 500 nM in experiment [1] and less than 10 nM in experiment [2].

Source of the values: patent US20250381185A1, “CDK4/PARP1 DUAL-TARGET INHIBITOR AND USE THEREOF” (YANBIAN UNIVERSITY, priority 2024, published 2025).
